Measured values taken from ChEMBL document CHEMBL1140135 (J Med Chem, 2008).

Target: T1, Dihydrofolate reductase (Homo sapiens, UniProt P00374)
T1 sequence (P00374 whole entry): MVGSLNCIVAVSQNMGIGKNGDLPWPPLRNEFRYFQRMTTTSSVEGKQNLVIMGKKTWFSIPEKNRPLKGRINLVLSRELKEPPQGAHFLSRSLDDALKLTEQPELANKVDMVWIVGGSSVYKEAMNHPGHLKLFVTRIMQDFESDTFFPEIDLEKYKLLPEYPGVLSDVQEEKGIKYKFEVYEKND

## Cc1sc2nc(N)[nH]c(=O)c2c1Sc1ccc(Cl)c(Cl)c1
  IC50: 2.8 µM
